For the test, the target named is renin (Homo sapiens, UniProt P00797). Put plainly: in vitro renin inhibitory activity, radioimmunoassay for angiotensin I. The following applies: renin incubated two hours at 37° with angiotensinogen, concentration causing 50% inhibition of renin activity.

By UniProt entry, the sequences of proteins in these tests, tags left out. Residues count along the entry.
UniProt P00797, 67-406 limits assumed: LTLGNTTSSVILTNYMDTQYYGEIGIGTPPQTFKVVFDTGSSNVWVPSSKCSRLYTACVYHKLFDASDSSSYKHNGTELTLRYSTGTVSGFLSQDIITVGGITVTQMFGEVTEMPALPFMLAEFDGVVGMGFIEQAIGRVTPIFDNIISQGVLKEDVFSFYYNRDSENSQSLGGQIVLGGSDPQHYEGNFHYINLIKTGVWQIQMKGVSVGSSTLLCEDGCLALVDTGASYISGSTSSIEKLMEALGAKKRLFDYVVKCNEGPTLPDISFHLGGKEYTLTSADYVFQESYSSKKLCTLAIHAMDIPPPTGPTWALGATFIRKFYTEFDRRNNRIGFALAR

Bounds are passed on as bounds.

Usually IC50 stands for the concentration at which inhibition is half-maximal. High values mean weaker potency in that assay, low ones greater potency in that assay. `COC(=O)C(NC(=O)[C@H](Cc1ccccc1)NC(=O)CC(C)C)C(=O)NC(CC1CCCCC1)C(O)C(O)CC(C)C` (stereo partly shown) showed an IC50 of 1.4 nM.
On the same count and under the same terms, as for `CNC(=S)NCCCC[C@H](NC(=O)[C@H](Cc1ccccc1)NS(=O)(=O)N1CCOCC1)C(=O)NC(CC1CCCCC1)C(O)C(O)CC(C)C` (stereo partly shown), the figure is 0.19 nM.
The compound `CC(C)CC(O)C(O)C(CC1CCCCC1)NC(=O)C(CC#CCNC=O)NC(=O)[C@H](Cc1ccccc1)NS(=O)(=O)N1CCOCC1` (stereo partly shown) came in with an IC50 of 6 nM.
The compound `COC(=O)C(NC(=O)[C@H](Cc1ccccc1)NS(=O)(=O)N1CCNCC1)C(=O)NC(CC1CCCCC1)C(O)C(O)CC(C)C` (stereo partly shown) showed an IC50 (tested form: acetate) of 0.6 nM.
`CC(C)CC(O)C(O)C(CC1CCCCC1)NC(=O)[C@H](Cc1c[nH]cn1)NC(=O)C(Cc1ccccc1)CS(=O)(=O)C(C)(C)C` (single isomer, unassigned) [BBSPHISCAD (slow isomer)]: the IC50 (tested form: methanesulfonate) was determined as 0.8 nM.
In turn, `CCOC(NC(=O)[C@H](Cc1ccccc1)NS(=O)(=O)N1CCOCC1)C(=O)NC(C1CCCCC1)C(O)C(O)CC(C)C` (single isomer, unassigned) registered an IC50 of 25 nM.
Same read-out and setting: as for `COC(=O)C(NC(=O)[C@H](Cc1ccc(OC)cc1)NS(=O)(=O)N(C)C)C(=O)NC(CC1CCCCC1)C(O)C(O)CC(C)C` (stereo partly shown), the figure is 0.68 nM.
The same measure, in the same setting: as for `CCOC(NC(=O)[C@H](Cc1ccccc1)NC(=O)CC(C)(C)N)C(=O)NC(CC1CCCCC1)C(O)C(O)CC(C)C` (stereo partly shown), the figure is 1.4 nM; as for `COC(=O)C(NC(=O)[C@H](Cc1ccccc1)NS(=O)(=O)N(C)C)C(=O)NC(CC1CCCCC1)C(O)C(O)CC(C)C` (stereo partly shown), 0.66 nM.
Consider `CC(C)CC(O)C(O)C(CC1CCCCC1)NC(=O)C(CC#N)NC(=O)[C@H](Cc1ccccc1)NS(=O)(=O)N1CCOCC1` (stereo partly shown), for which the IC50 was 0.4 nM.
`COC(=O)C(NC(=O)[C@H](Cc1ccccc1)NS(=O)(=O)N1CCN(C)CC1)C(=O)NC(CC1CCCCC1)C(O)C(O)CC(C)C` (stereo partly shown) returned an IC50 (tested form: acetate) of 0.3 nM.
`CC(C)CC(O)C(O)C(CC1CCCCC1)NC(=O)[C@H](Cc1c[nH]cn1)NC(=O)C(Cc1ccccc1)CS(=O)(=O)C(C)(C)C` (single isomer, unassigned) [BBSPHISCAD (fast isomer)] returned an IC50 (tested form: methanesulfonate) of 160 nM.
In turn, `C=CCSC(NC(=O)[C@H](Cc1ccccc1)NS(=O)(=O)N1CCOCC1)C(=O)NC(CC1CCCCC1)C(O)C(O)CC(C)C` (single isomer, unassigned) [drawing 105] returned an IC50 of 38 nM.
Still for that read-out and setting: as for `CC(C)CC(O)C(O)C(CC1CCCCC1)NC(=O)C(NC(=O)[C@H](Cc1ccccc1)NS(=O)(=O)N1CCOCC1)C(=O)O` (stereo partly shown), the figure is 12 nM.
Compound `CC(C)CC(O)C(O)C(CC1CCCCC1)NC(=O)CNC(=O)[C@H](Cc1ccccc1)NS(=O)(=O)N1CCOCC1` (stereo partly shown) returned an IC50 of 5 nM.
The same measure, in the same setting: the value for `CC(=O)NCC#CCC(NC(=O)[C@H](Cc1ccccc1)NS(=O)(=O)N1CCOCC1)C(=O)NC(CC1CCCCC1)C(O)C(O)CC(C)C` (stereo partly shown) was 7.6 nM; that for `CCSC(NC(=O)[C@H](Cc1ccccc1)NC(=O)OC(C)(C)C)C(=O)NC(CC1CCCCC1)C(O)C(O)CC(C)C` (single isomer, unassigned) [BOCPHENHCH(SEt)COCAD (slow isomer)] was greater than 10 nM; that for `COC(=O)C(NC(=O)[C@H](Cc1ccc(OC)cc1)NS(=O)(=O)N1CCOCC1)C(=O)NC(CC1CCCCC1)C(O)C(O)CC(C)C` (stereo partly shown) was 0.45 nM.
Still for that read-out and setting: as for `CNC(=S)NCC#CCC(NC(=O)[C@H](Cc1ccccc1)NS(=O)(=O)N1CCOCC1)C(=O)NC(CC1CCCCC1)C(O)C(O)CC(C)C` (stereo partly shown), the figure is 24 nM.

The record behind these values is patent US5036053A.
